Molecular target: Transketolase (Homo sapiens, UniProt P29401)
Assay: Inhibition of apo-transketolase

Protein sequences, listed by entry. Tags and fused reporters are not part of them.
UniProt P29401, whole entry, looked up: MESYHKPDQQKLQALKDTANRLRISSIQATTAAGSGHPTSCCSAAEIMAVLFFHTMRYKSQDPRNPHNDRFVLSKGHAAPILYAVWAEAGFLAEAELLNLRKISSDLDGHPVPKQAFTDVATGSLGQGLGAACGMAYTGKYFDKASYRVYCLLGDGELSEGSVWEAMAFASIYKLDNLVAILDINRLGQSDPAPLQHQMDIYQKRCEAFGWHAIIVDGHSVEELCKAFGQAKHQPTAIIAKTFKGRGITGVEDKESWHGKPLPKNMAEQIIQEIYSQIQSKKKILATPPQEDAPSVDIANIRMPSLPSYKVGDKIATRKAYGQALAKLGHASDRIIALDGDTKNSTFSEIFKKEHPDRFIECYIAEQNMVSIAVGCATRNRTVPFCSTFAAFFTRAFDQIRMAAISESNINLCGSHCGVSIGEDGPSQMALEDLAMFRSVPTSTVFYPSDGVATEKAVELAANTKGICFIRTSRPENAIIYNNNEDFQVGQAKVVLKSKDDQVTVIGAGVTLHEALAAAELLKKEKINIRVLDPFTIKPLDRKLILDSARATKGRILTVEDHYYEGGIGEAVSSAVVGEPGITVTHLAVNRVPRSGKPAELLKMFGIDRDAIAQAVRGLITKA

SMILES: Cc1ncc(C[n+]2csc(CCOP(C)(=O)OP(=O)(O)O)c2C)c(N)n1 (stereo unspecified)
- Kd: 0.17 µM
